Laboratory results published in patent US20160376605A1, “WHEAT PLANTS HAVING INCREASED TOLERANCE TO IMIDAZOLINONE HERBICIDES” (BASF SE, priority 2003, published 2016).
Like-named read-outs stand apart in the source and are kept apart here.

Legend:
[1] = system: AHAS enzyme extracted from durum line C119
[2] = system: AHAS enzyme extracted from durum line UT01
[3] = system: AHAS enzyme extracted from durum line UT03
[4] = system: AHAS enzyme extracted from durum line UT05
[5] = system: AHAS enzyme extracted from durum line UT07
[6] = system: AHAS enzyme extracted from durum line UT08
[7] = system: AHAS enzyme extracted from durum line UT10
[8] = system: AHAS enzyme extracted from durum line UT12
[9] = system: AHAS enzyme extracted from durum line UT13
[10] = system: AHAS enzyme extracted from durum line UT14
[11] = system: AHAS enzyme extracted from durum line UT16
[12] = system: AHAS enzyme extracted from durum line UT17
[13] = system: AHAS enzyme extracted from durum line UT20
[14] = system: AHAS protein extracted from wild type Durum wheat plants (Line UT)

COCc1cnc(C2=NC(C)(C(C)C)C(=O)N2)c(C(=O)O)c1 (centres unmarked) [imazamox]
In vitro AHAS activity, expressed as percent of control ([1]; 13 uM Imazamox): 54.0% of control | In vitro AHAS activity, expressed as percent of control ([1]; 25 uM Imazamox): 56.3% of control | In vitro AHAS activity, expressed as percent of control ([1]; 50 uM Imazamox): 55.3% of control | In vitro AHAS activity, expressed as percent of control ([1]; 100 uM Imazamox): 41.9% of control | In vitro AHAS activity, expressed as percent of control ([2]; 13 uM Imazamox): 61.6% of control | In vitro AHAS activity, expressed as percent of control ([2]; 25 uM Imazamox): 58.5% of control | In vitro AHAS activity, expressed as percent of control ([2]; 50 uM Imazamox): 54.1% of control | In vitro AHAS activity, expressed as percent of control ([2]; 100 uM Imazamox): 49.6% of control | In vitro AHAS activity, expressed as percent of control ([3]; 13 uM Imazamox): 73.7% of control | In vitro AHAS activity, expressed as percent of control ([3]; 25 uM Imazamox): 63.5% of control | In vitro AHAS activity, expressed as percent of control ([3]; 50 uM Imazamox): 60.3% of control | In vitro AHAS activity, expressed as percent of control ([3]; 100 uM Imazamox): 52.2% of control | In vitro AHAS activity, expressed as percent of control ([4]; 13 uM Imazamox): 54.1% of control | In vitro AHAS activity, expressed as percent of control ([4]; 25 uM Imazamox): 59.5% of control | In vitro AHAS activity, expressed as percent of control ([4]; 50 uM Imazamox): 56.9% of control | In vitro AHAS activity, expressed as percent of control ([4]; 100 uM Imazamox): 45.4% of control | In vitro AHAS activity, expressed as percent of control ([5]; 13 uM Imazamox): 64.3% of control | In vitro AHAS activity, expressed as percent of control ([5]; 25 uM Imazamox): 61.3% of control | In vitro AHAS activity, expressed as percent of control ([5]; 50 uM Imazamox): 46.9% of control | In vitro AHAS activity, expressed as percent of control ([5]; 100 uM Imazamox): 50.6% of control | In vitro AHAS activity, expressed as percent of control ([6]; 13 uM Imazamox): 60.3% of control | In vitro AHAS activity, expressed as percent of control ([6]; 25 uM Imazamox): 55.3% of control | In vitro AHAS activity, expressed as percent of control ([6]; 50 uM Imazamox): 49.6% of control | In vitro AHAS activity, expressed as percent of control ([6]; 100 uM Imazamox): 41.2% of control | In vitro AHAS activity, expressed as percent of control ([7]; 13 uM Imazamox): 68.4% of control | In vitro AHAS activity, expressed as percent of control ([7]; 25 uM Imazamox): 59.7% of control | In vitro AHAS activity, expressed as percent of control ([7]; 50 uM Imazamox): 54.9% of control | In vitro AHAS activity, expressed as percent of control ([7]; 100 uM Imazamox): 46.6% of control | In vitro AHAS activity, expressed as percent of control ([8]; 13 uM Imazamox): 58.3% of control | In vitro AHAS activity, expressed as percent of control ([8]; 25 uM Imazamox): 55.6% of control | In vitro AHAS activity, expressed as percent of control ([8]; 50 uM Imazamox): 52.7% of control | In vitro AHAS activity, expressed as percent of control ([8]; 100 uM Imazamox): 44.9% of control | In vitro AHAS activity, expressed as percent of control ([9]; 13 uM Imazamox): 73.2% of control | In vitro AHAS activity, expressed as percent of control ([9]; 25 uM Imazamox): 60.4% of control | In vitro AHAS activity, expressed as percent of control ([9]; 50 uM Imazamox): 51.8% of control | In vitro AHAS activity, expressed as percent of control ([9]; 100 uM Imazamox): 46.5% of control | In vitro AHAS activity, expressed as percent of control ([10]; 13 uM Imazamox): 62.4% of control | In vitro AHAS activity, expressed as percent of control ([10]; 25 uM Imazamox): 53.5% of control | In vitro AHAS activity, expressed as percent of control ([10]; 50 uM Imazamox): 56.8% of control | In vitro AHAS activity, expressed as percent of control ([10]; 100 uM Imazamox): 55.6% of control | In vitro AHAS activity, expressed as percent of control ([11]; 13 uM Imazamox): 51.9% of control | In vitro AHAS activity, expressed as percent of control ([11]; 25 uM Imazamox): 46.7% of control | In vitro AHAS activity, expressed as percent of control ([11]; 50 uM Imazamox): 45.5% of control | In vitro AHAS activity, expressed as percent of control ([11]; 100 uM Imazamox): 41.7% of control | In vitro AHAS activity, expressed as percent of control ([12]; 13 uM Imazamox): 59.3% of control | In vitro AHAS activity, expressed as percent of control ([12]; 25 uM Imazamox): 48.0% of control | In vitro AHAS activity, expressed as percent of control ([12]; 50 uM Imazamox): 48.0% of control | In vitro AHAS activity, expressed as percent of control ([12]; 100 uM Imazamox): 36.5% of control | In vitro AHAS activity, expressed as percent of control ([13]; 13 uM Imazamox): 63.4% of control | In vitro AHAS activity, expressed as percent of control ([13]; 25 uM Imazamox): 61.8% of control | In vitro AHAS activity, expressed as percent of control ([13]; 50 uM Imazamox): 50.3% of control | In vitro AHAS activity, expressed as percent of control ([13]; 100 uM Imazamox): 40.3% of control | In vitro AHAS activity, expressed as percent of control ([14]; 13 uM Imazamox): 15.9% of control | In vitro AHAS activity, expressed as percent of control ([14]; 25 uM Imazamox): 11.1% of control | In vitro AHAS activity, expressed as percent of control ([14]; 50 uM Imazamox): 10.2% of control | In vitro AHAS activity, expressed as percent of control ([14]; 100 uM Imazamox): 5.4% of control
